Source: US20220016215A1, “GIP RECEPTOR AGONIST PEPTIDE COMPOUNDS AND USES THEREOF” (TAKEDA PHAARMACEUTICAL COMPANY LIMITED, priority 2018, published 2022)
Values belong to the molecule of their own block, whether it stands above or below them.

By UniProt entry, the sequences of proteins in these tests, tags left out. Where a name states a change or a piece, a line headed by the entry shows the natural chain unless it says otherwise.
UniProt P43220: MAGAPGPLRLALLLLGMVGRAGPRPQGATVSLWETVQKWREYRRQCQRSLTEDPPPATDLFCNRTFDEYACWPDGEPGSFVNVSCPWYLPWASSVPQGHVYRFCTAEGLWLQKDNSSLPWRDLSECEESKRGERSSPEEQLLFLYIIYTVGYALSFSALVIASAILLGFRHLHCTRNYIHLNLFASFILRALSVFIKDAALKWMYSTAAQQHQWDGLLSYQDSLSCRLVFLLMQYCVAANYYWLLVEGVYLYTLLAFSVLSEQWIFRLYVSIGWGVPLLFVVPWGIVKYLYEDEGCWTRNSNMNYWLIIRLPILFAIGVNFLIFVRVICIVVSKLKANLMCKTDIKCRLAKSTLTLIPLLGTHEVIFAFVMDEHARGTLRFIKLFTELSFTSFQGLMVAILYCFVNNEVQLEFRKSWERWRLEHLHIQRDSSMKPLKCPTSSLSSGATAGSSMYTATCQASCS

Assays:
human GIPR [1] = molecular target: T1, human GIPR (Homo sapiens, UniProt P48546); test: Agonist activity on human GIPR, CRE-luciferase reporter assay (increase in intracellular cAMP as indicator); type: cell-based; settings: GLP1R EC50 / GIPR EC50
T1 construct: expressed in transfected cells
T1 sequence (P48546 22-466): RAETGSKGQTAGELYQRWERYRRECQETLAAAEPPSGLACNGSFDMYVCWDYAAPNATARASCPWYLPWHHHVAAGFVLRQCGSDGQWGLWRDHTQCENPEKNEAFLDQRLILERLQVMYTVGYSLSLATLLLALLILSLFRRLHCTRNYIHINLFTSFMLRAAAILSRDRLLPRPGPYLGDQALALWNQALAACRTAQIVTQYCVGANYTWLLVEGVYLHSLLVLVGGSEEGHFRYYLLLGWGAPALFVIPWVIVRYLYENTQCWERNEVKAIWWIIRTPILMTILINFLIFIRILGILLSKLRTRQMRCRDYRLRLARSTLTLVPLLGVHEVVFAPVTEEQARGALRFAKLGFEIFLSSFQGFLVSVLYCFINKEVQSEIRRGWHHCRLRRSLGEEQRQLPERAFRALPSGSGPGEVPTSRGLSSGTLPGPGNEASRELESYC

human GIPR [2] = molecular target: T2, human GIPR (human, UniProt P48546 22-466); test: cell-based or functional assay
T2 sequence (looked up): T1 sequence (P48546 22-466)

human GLP-1R = human GLP-1R (human, UniProt P43220 24-463); test: cell-based or functional assay

Molecule: YAibEGTFTSDYSIAibLDKIAQ(Lys-(ethylene glycol)2-C20 diacid)AFVQWLIAGGPSSGAPPPS-NH2 [Compound 34]
Selectivity Ratio (B/A) (human GIPR [1]): 20

B1: Compound No. 4 (peptide)
peptide: YAEGTFISDYSIAMDKIHQQDFVNWLLAQK
modifications: D-Ala at 2; C-terminal -OH
GIPR pEC50 (human GIPR [2]): 12.4

GLP1R EC50 nM (B) (human GLP-1R): 513 nM
GLP1R pEC50 (human GLP-1R): 6.29
GIPR EC50 nM (A) (human GIPR [2]): 0.024 nM
GIPR pEC50 (human GIPR [2]): 10.6
B2: Compound No. 13 (peptide)
peptide: YAEGTFISDYSIAMDKIHQQDFVNWLLAQKGKKNDWKHNIIQ
modifications: D-Ala at 2; Lys-(OEG-gGlu)2-Oda at 16; C-terminal -NH2
